Measurements taken from patent US9486491B2, “Collagen peptide composition production method, DPP-4 inhibitor, and antihyperglycemic agent” (Nippi, Incorporated, priority 2012, dated 2016).

By UniProt entry, the sequences of proteins in these tests, tags left out. Where a name states a change or a piece, a line headed by the entry shows the natural chain unless it says otherwise.
UniProt P22411: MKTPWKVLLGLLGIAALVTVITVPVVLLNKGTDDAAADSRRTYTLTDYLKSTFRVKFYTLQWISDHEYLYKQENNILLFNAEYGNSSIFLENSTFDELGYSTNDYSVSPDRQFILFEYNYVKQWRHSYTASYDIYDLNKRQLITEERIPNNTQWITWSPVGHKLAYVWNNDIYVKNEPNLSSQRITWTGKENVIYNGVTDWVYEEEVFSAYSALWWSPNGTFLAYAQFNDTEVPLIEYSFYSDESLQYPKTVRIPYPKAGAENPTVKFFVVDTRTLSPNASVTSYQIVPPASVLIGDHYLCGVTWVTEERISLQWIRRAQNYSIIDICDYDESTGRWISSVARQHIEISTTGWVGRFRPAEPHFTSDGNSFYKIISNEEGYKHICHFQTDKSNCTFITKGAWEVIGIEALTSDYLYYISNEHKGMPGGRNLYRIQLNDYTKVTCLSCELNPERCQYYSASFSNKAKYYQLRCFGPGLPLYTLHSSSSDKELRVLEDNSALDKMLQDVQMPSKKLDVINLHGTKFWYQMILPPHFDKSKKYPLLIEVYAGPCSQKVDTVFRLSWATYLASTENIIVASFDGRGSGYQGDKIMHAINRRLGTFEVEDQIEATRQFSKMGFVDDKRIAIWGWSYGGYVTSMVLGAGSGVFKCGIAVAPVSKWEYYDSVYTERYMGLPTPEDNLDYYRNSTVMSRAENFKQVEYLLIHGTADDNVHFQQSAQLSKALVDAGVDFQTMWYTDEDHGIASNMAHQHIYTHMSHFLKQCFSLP

These compounds were tested against T1, DPP-4 (derived from porcine kidney) (Sus scrofa, UniProt P22411) (assay: DPP-4 inhibition rate / IC50 value measurement (Gly-Pro-MCA fluorescence)). Conditions: individual oligopeptides.
T1 construct: purchased Sigma; host or cells: porcine kidney (tissue-derived enzyme)
Assay type: biochemical
Protocol: Thirty-five μl of sample solution obtained by dissolving a sample in 50 mM tris-hydrochloric acid buffer (pH 7.5) and 15 μl of DPP-4 (manufactured by Sigma, derived from porcine kidney; 8.6 mU/ml) that was dissolved in 50 mM tris-hydrochloric acid buffer (pH 7.5) were mixed in a microtiter plate well (manufactured by NUNC, trade name “237015”) and incubated at 37° C. for 10 minutes.
To this, 50 μl of substrate solution (obtained by dissolving glycylproline-4-methylcoumarin-7-amide (Gly-Pro-MCA) in 50 mM tris-hydrochloric acid buffer (pH 7.5) at 10 μM) kept at 37° C. in advance was added and mixed to react at 37° C. for 20 minutes.
The fluorescence intensity of 7-amino-4-methylcoumarin (AMC) released by DPP-4 was measured with time using a microplate reader-type fluorescence detector (manufactured by Corona Electric Co., Ltd., trade name “SH-9000”). As for the wavelength used for the measurement, the excitation wavelength was 380 nm and the measurement wavelength was 460 nm Instead of sample, 50 mM tris-hydrochloric acid buffer (pH 7.5) in an identical amount was employed as a control and the fluorescence intensity thereof was measured.
The activity of DPP-4 was expressed in an average gradient of change in the amount of fluorescence intensity during a reaction time. As for a DPP-4 inhibition rate, difference was calculated by, with the control as 100%, subtracting the activity of sample from the above-mentioned control to use as the inhibition rate (%).
According to the above method of measuring the DPP-4 inhibition rate, a 50% inhibitory concentration (IC50 value) of the DPP-4 activity in terms of one ml of reaction system was calculated by using the inhibition rates obtained by changing the concentration of sample.

Compound | IC50 value
CC(C)C[C@H](N)C(=O)N1CCC[C@H]1C(=O)NCC(=O)O [LeuProGly] | 0.014 mg/mL (≈ 49.1 µM)
C[C@H](N)C(=O)N1CCC[C@H]1C(=O)NCC(=O)O [AlaProGly] | 0.008 mg/mL (≈ 32.9 µM)
NCC(=O)N1CCC[C@H]1C(=O)N[C@@H](CCC(N)=O)C(=O)O [GlyProGln] | 0.093 mg/mL (≈ 310 µM)
CC(C)[C@H](NC(=O)[C@@H]1CCCN1C(=O)CN)C(=O)O [GlyProVal] | 0.100 mg/mL (≈ 369 µM)

Same assay, conditions: individual oligopeptides; read-out: IC50 value (mg/ml) (converted)

Compound | IC50
NCC(=O)N1CCC[C@H]1C(=O)N[C@@H](CO)C(=O)O [GlyProSer] | 548 µM
C[C@H](NC(=O)[C@@H]1CCCN1C(=O)CN)C(=O)O [GlyProAla] | 292 µM

Converted amounts (≈) assume the structure as drawn.
